Data published in ChEMBL document CHEMBL5257152, “Antiproliferative activity and toxicity evaluation of 1,2,3-triazole and 4-methyl coumarin hybrids in the MCF7 breast cancer cell line” (RSC Med Chem, 2023).

Experiments:
[1] = Selectivity index, ratio of IC50 for mouse 3T3 cells to IC50 for human OVCAR cells
[2] = Selectivity index, ratio of IC50 for mouse 3T3 cells to IC50 for mouse J774.A1 cells

Ratio IC50 [1]: 0.006
Ratio IC50 [2]: 0.015
Structure (SMILES): Cc1cc(=O)oc2cc(OCCn3cc(CCN4C(=O)c5ccccc5C4=O)nn3)ccc12
